## Apparent affinities of Ab-14 variants for a coronavirus HR2 peptide

Values reported by Li et al. 2023, doi:10.1038/s41467-023-39022-2 (FLAb copy).

Antigen: PDVDLGDISGINAS, a 14-residue peptide of the SARS-CoV-2 spike HR2 region.

Ab-14 is the parent antibody, in scFv form: VH, then a 15-residue (Gly4Ser)3 linker, then VL. The heavy chain is unchanged in all variants.
VH: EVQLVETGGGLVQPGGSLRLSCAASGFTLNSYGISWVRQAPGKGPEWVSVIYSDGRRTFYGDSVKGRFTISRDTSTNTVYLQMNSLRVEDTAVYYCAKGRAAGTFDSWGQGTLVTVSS
VL: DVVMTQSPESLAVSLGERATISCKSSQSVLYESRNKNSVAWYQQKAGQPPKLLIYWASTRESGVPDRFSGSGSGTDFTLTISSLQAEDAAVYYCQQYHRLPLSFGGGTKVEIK

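The parent was found by panning a naive human phage display library on the peptide. The variants were designed computationally from a first round of random CDR variants and then made and measured. Their group label is 14L_En_Gen (En: ensemble of fine-tuned language models; Gen: genetic algorithm). Affinity was read by AlphaSeq, a pooled yeast mating assay with surface-displayed partners. Mating (16 h, 30 °C) was followed by selection of diploids and sequencing of their barcodes. Scores were corrected for input abundance and mapped to Kd with protein pairs of known affinity run in the same pool. Each pool was mated in six replicate cultures.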

Each variant is given by its three light chain CDRs, as the data file delimits them; those of the parent are KSSQSVLYESRNKNSVA, WASTRES, QQYHRLPLS.
Affinities are written as log10 Kd with Kd in nM; a lower number is a better binder.
A pair that was not seen in that replicate is written "nd"; this usually means weak binding, but a binder can also be missed.
Values of this round are not directly comparable with the first-round values of the same sequences.
Of ten entries with the parent sequence, four were seen in most replicates (averages 0.34 to 2.37), three in one and three in none, so single entries are noisy.
Three control strains display no target. For all light chain designs, 4% of the pairings with them gave a signal, with a median of 2.64 and one signal in twenty below 1.59, so weak values seen in few replicates may be background. For each scFv, signals with the empty controls are counted beside the result, with their mean in brackets.
In the paper, a design with two or fewer of six values counts as a poor binder.

CDR-L1	CDR-L2	CDR-L3	log10 Kd (nM) by replicate	control signals
MISQLMNLGQFAINSVA	QASIRNQ	QQYDRLPLI	1.37 / 1.75 / 0.96 / 3.13 / 0.74 / 1.99	1/18 (2.40)
KISMLINTTFEVSNNVA	EMVTRMK	QQYNRLPLS	1.59 / 3.21 / 1.99 / 1.52 / 2.45 / 2.21	0/18
HIGLVTELEAKVSNSVA	NNSTREE	QQYDRLPLS	nd / 2.32 / 2.22 / 1.80 / 0.91 / 3.15	0/18
MMSSLMGYESRHINNVA	QTTTREE	QQYDRLPLV	0.57 / 0.30 / 0.31 / 0.07 / 0.25 / 0.40	1/18 (3.94)
MLYGLSNSMSKNKNNVA	EMTTREV	QQYDRLPLV	0.84 / 0.76 / 1.16 / 0.80 / 0.83 / 1.13	1/18 (3.22)
IVSQLMLWGMHAKNSIA	EAETRPN	QQYDRLPLI	nd / nd / nd / nd / nd / nd	0/18
MLSQMWALGMKVKNSVA	QASMRFN	QQYDRLPLV	nd / nd / nd / nd / nd / nd	0/18
MISQLMNMGTFAINSVA	QAEIRNM	QQYDRLPLA	nd / nd / nd / nd / nd / nd	0/18
HMSMLTLQGMRMRNSVA	QMTTRVN	QQYDRLPLA	nd / nd / nd / nd / nd / nd	0/18
IVSQLMLWGLHASNSIA	EAQTRLN	QQYDRLPLF	0.89 / 0.70 / 1.08 / 1.39 / 1.05 / 0.60	0/18
KIYQGINTHLGAHSSIA	QEETRLQ	QQYAHLPLS	0.92 / 0.98 / 0.77 / 0.68 / 0.77 / 0.67	2/18 (2.70)
KVYGGINFQSSARNSIA	EETMRQD	QQYARLPLS	0.22 / 0.26 / 0.41 / 0.69 / 0.39 / 0.20	0/18
KLSSVTGHMSQAKNNVA	EMVTREK	QQYNRLPLS	0.42 / 0.43 / 0.44 / 0.41 / 0.21 / 0.82	0/18
MISQLINMGSFAINSVA	QASLRCN	QQYDRLPLT	nd / nd / nd / nd / nd / nd	0/18
QISGITGHMSMLKNNVA	EMETREN	QQYDRLPLA	-0.04 / -0.03 / -0.33 / 0.15 / 0.66 / 0.11	0/18
QLSSITGHMSMSKNNVA	EMETREN	QQYDRLPLS	0.30 / -0.31 / -0.06 / -0.19 / -0.11 / 0.60	0/18
MVTQMAMSGMTNKRNVA	NAETREA	QQYHRLPLI	0.31 / 0.23 / 0.19 / -0.02 / 0.22 / 0.41	0/18
KLSGLMASSKFAKDNVA	ENNTREY	QQYDRLPLS	nd / nd / nd / 2.19 / 2.93 / 1.77	1/18 (2.19)
MISQVMNTLTREGNNVA	DLTNREK	QQYFRLPLS	1.59 / 0.81 / 1.45 / 1.24 / 2.13 / 1.45	1/18 (1.98)
HITYGMNVAGRHSSSIA	QAEEREK	QQYDRLPLI	0.39 / 0.04 / 0.25 / -0.01 / -0.03 / 0.55	0/18
KISQMVRVGQTHSNSIA	EEATRAK	QQYHRLPLA	0.67 / 0.78 / 0.71 / 0.57 / 0.60 / 1.05	1/18 (2.33)
KISMLKNQTFEESNNVA	EMVTREK	QQYNRLPLS	1.83 / nd / 1.14 / 1.32 / 1.85 / 2.59	1/18 (2.17)
SISMLLNFESKKGSNVA	QMETRVN	QQYDRLPLS	0.40 / 0.25 / 0.30 / 0.19 / 0.45 / 0.48	1/18 (3.43)
TISQVMNTLTRHGNNVA	DLEERED	QQYFRLPLS	1.01 / 0.85 / 0.91 / 0.89 / 0.99 / 1.21	0/18
KISEVMNFAQFNKQSIA	EVSTRSQ	QSYNRLPLS	1.39 / 1.74 / 0.96 / 0.98 / 2.44 / nd	0/18
IVSQLMIWGMHHKNSIA	EAQTRVN	QQYDRLPLF	0.44 / 0.48 / 0.02 / 0.00 / -0.06 / 0.18	2/18 (3.09)
KISMLINMTFEMSNNVA	EMATREK	QQYNRLPLS	nd / nd / nd / nd / nd / nd	0/18
HITYGMMVAGRHMESIA	QAEERAK	QQYDRLPLS	0.64 / 0.45 / 0.33 / 0.13 / 0.25 / 0.30	0/18
IVSQLMLWGMHAKNSIA	EAELRLN	QQYDRLPLI	nd / 3.18 / nd / nd / nd / nd	0/18
IVSQLFLWGMHAKNSIA	EAELRLN	QQYDRLPLF	nd / nd / nd / nd / nd / nd	0/18
TISQMSTLFSQSINNVA	EVSTRLD	QQYDRLPLA	0.48 / 0.91 / 1.21 / 0.42 / 0.62 / 0.62	0/18
MISQLMNMGTFAINSVA	QAEIRNN	QQYDRLPLI	nd / 1.20 / 1.38 / nd / nd / nd	0/18
TISQVMNTLTRHGNNVA	DLQNREN	QQYYRLPLS	1.02 / 1.31 / 1.11 / 1.22 / 0.98 / 1.61	0/18
TLSQMSGVESVKHNSVA	ENSTREN	QQYDRLPLS	0.94 / 2.09 / 0.61 / 1.28 / 0.80 / 0.65	0/18
KISQMIRVGSTASNSIA	EEVTRAK	QQYHRLPLS	0.88 / 0.80 / 0.68 / 0.65 / 1.22 / 0.97	1/18 (2.16)
KIGMTLNQLYQKANNVA	DLVTREN	QQYHRLPLS	1.43 / 0.46 / 0.78 / 0.45 / 0.76 / 0.84	0/18
KLTQTMRFEQKKKNNIA	EVTERTK	QQYYRLPLA	0.99 / 0.58 / 0.56 / 1.35 / 1.11 / 1.81	0/18
NIYQAMHTLSQTKDNVA	DVEERGS	QQYFRLPLS	0.58 / 0.20 / 0.19 / 0.20 / 0.19 / 0.29	0/18
IVSQLMLWGYHAKNSIA	EAQTRLN	QQYDRLPLD	nd / nd / nd / nd / nd / nd	0/18